Results: publication PMC2614347, “A Novel Peptide Enhances Therapeutic Efficacy of Liposomal Anti-Cancer Drugs in Mice Models of Human Lung Cancer” (PLoS ONE, 2009)

Assays:
Format in all cases: in vivo, SCID mice
[1] = system: H460-derived xenografts; assay: Ligand-targeted therapy of lung cancer xenografts; settings: doxorubicin 1 mg/kg i.v. twice a week, eight injections (total 8 mg/kg); n = 6
[2] = Pharmacokinetic and biodistribution study of doxorubicin formulations; settings: 2 mg/kg i.v.; NSCLC xenografts ~500 mm^3; spectrofluorometry; n = 3 per time point
Description: SCID mice bearing NSCLC xenografts (∼500 mm^3), were injected in the tail vein with various formulations of liposomal doxorubicin (SP5-2-LD, MP5-2-LD, and LD) and free doxorubicin at a dose of 2 mg/kg. At selected time points, three mice in each group were anaesthetized and sacrificed. Blood samples were collected through submaxillary punctures, and plasma samples were prepared. After perfusion, xenograft tumors and mouse organs were removed and homogenized. […] Total doxorubicin concentration was measured using a method described by Mayer et al.. […] Tissue concentrations of doxorubicin were expressed as microequivalents per milliliter of plasma or per gram of tissue. A standard doxorubicin curve was prepared in control homogenates following the same extraction procedure as above. Drug levels were estimated on the basis of doxorubicin fluorescent equivalents.

[3] = system: CL1-5-derived xenografts; assay: Ligand-targeted therapy of lung cancer xenografts; settings: doxorubicin 1 mg/kg i.v. twice a week, eight injections (total 8 mg/kg); tumors 50-100 mm^3 at start; n = 6
Description: Mice 4–6 weeks of age were injected s.c. in the dorsolateral flank with human NSCLC cells. […] Mouse body weights and tumor sizes were measured twice a week. Tumor volumes were calculated using the equation: length×(width)^2×0.52. Animal care was carried out in accordance with guidelines of Academia Sinica, Taiwan.

In the case of `COc1cccc2c1C(=O)c1c(O)c3c(c(O)c1C2=O)C[C@@](O)(C(=O)CO)C[C@@H]3O[C@H]1C[C@H](N)[C@H](O)[C@H](C)O1` [FD, doxorubicin], the “Tumor size relative to that in the SP5-2-LD group” value [1] is reported as 8.6 fold larger, the “AUC0–48 hours of doxorubicin in tumor tissues” value [2] is reported as 10.4 µg·h/g and the “Tumor size relative to that in the SP5-2-LD group” value [3] is reported as 7.0 times larger.
